{
  "source": "ChEMBL document CHEMBL1156794",
  "about": "“Synthesis and antimicrobial evaluation of amphiphilic neamine derivatives” (J Med Chem, 2010)",
  "key": {"Acinetobacter lwoffii": {"tested_on": "Acinetobacter lwoffii", "settings": "ATCC 17925"}, "Escherichia coli": {"tested_on": "Escherichia coli", "settings": "ATCC 25922"}},
  "data": [
    {"sequence": "GENTAMICIN", "values": [
      {"measurement": "MIC", "setting": "Acinetobacter lwoffii", "result": 0.5, "unit": "µg/mL"},
      {"measurement": "MIC", "setting": "Escherichia coli", "result": "< 0.5", "unit": "µg/mL"}
    ]}
  ]
}
